Laboratory results taken from patent US7893077B2, “Bisaryl-sulfonamides” (Amgen Inc., priority 2004, dated 2011).

Sequences of proteins named here, by UniProt entry; tags and fusion partners are left off.
UniProt P37231, whole entry: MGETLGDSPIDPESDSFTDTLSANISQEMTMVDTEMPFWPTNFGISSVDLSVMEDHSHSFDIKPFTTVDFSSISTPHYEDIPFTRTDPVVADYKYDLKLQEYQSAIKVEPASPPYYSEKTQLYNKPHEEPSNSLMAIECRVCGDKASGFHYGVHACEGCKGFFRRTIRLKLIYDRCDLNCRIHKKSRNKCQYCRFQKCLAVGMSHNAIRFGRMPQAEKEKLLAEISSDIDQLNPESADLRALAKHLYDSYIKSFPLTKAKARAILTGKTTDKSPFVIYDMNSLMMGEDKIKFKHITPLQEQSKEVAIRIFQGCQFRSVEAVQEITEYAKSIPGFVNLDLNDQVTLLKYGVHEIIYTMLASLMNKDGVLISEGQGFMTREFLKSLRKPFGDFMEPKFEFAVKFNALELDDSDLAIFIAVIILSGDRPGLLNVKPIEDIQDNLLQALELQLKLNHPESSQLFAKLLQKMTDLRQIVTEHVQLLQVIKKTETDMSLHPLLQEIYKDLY

Biological target: PPARγ (Homo sapiens, UniProt P37231)
Test: PPARγ ligand binding assay utilizing [3H]-BRL 49653 as the radioligand (filtration)
Conditions: read-out: PPARγ Binding IC50 Filtration; concentration required to reduce by 50% the specific binding of [3H]-BRL 49653
Source text: The compounds of the present invention can be evaluated for modulation of the PPARγ receptor using assays such as those described in Jiang, et al., Nature 391:82-86 (1998), Ricote, et al., Nature 391:79-82 (1998) and Lehmann, et al., J. Biol. Chem. 270(12): 12953-12956 (1995). Alternatively, the compounds can be evaluated for their ability to displace radiolabeled BRL 49653 from a PPARγ-GST fusion protein as follows:
PPARγ-GST fusion protein (prepared according to standard procedures), [^3H]-BRL 49653 having 50 Ci/mmol specific activity, Polyfiltronics Unifilter 350 filtration plate and glutathione-Sepharose® beads (from Pharmacia: washed twice with 10× binding buffer in which BSA and DTI can be left out).
Binding buffer (10 mM Tris-HCl, pH 8.0, 50 mM KCl, 10 mM DTT, 0.02% BSA and 0.0 1% NP-40) is added in 80-μL amounts to the wells of the filtration plate. The test compound is then added in 10 μL of DMSO. The PPARγ-GST fusion protein and radiolabeled BRL compound are premixed in binding buffer containing 10 mM DTT and added in 10-μL amounts to the wells of the plate to provide final concentrations of 1 µg/well of PPARγ-GST fusion protein and 10 nM [^3H]-BRL 49653 compound. The plate is incubated for 15 min. Glutathione-agarose bead is added in 50 μL of binding buffer, and the plate is vigorously shaken for one hour. The plate is washed four times with 200 μL/well of binding buffer (without BSA and DTT). The bottom of the plate is sealed and 200 μL/well of scintillation cocktail is added. The top of the plate is then sealed and the radioactivity is determined.
IC50 values are defined as the concentration of test compounds required to reduce by 50% the specific binding of [^3H]-BRL 49653 and are represented by (+)<30 μM; (++)<10 μM; (+++)<1 μM.

SMILES	IC50 [nM]
CC(=O)c1cc(NS(=O)(=O)c2ccc(Cl)c(Cl)c2)cc(Cl)c1Oc1ccc(S(=O)(=O)N2CCOCC2)cc1	< 1000
CC(=O)c1cc(NS(=O)(=O)c2cccc(F)c2)cc(Cl)c1Oc1ccc(S(=O)(=O)N2CCOCC2)cc1	< 10000
O=C(c1cc(NS(=O)(=O)c2ccc(Cl)cc2Cl)ccc1Sc1ccc(S(=O)(=O)N2CCOCC2)cn1)C1CC1	< 1000
CCN(CC)S(=O)(=O)c1ccc(Oc2ccc(NS(=O)(=O)c3cc(C)c(Cl)cc3Cl)cc2C)cc1	< 30000
CC(=O)c1cc(NS(=O)(=O)c2ccccc2F)cc(Cl)c1Oc1ccc(S(=O)(=O)N2CCOCC2)cc1	< 10000
CC(=O)c1cc(NS(=O)(=O)c2cccc(OC(F)(F)F)c2)cc(Cl)c1Oc1ccc(S(=O)(=O)N2CCOCC2)cc1	< 10000
CC(=O)c1cc(NS(=O)(=O)c2ccc(Cl)cc2Cl)cc(Cl)c1Oc1ccc(S(=O)(=O)N2CCOCC2)cc1	< 1000
O=S(=O)(Nc1ncc(Sc2ccc(S(=O)(=O)N3CCCCC3)cc2)c(O)n1)c1ccc(Cl)cc1Cl	< 10000
CCCC(=O)c1nc(NS(=O)(=O)c2ccc(Cl)cc2Cl)ccc1Sc1ccc(S(=O)(=O)N2CCCCC2)cc1 [Compound 73, N-{6-Butyryl-5-[4-(piperidine-1-sulfonyl)-phenylsulfanyl]-pyridin-2-yl}-2,4-dichloro-benzenesulfonamide]	< 1000
CC(=O)c1cc(NS(=O)(=O)c2cc(F)ccc2C)cc(Cl)c1Oc1ccc(S(=O)(=O)N2CCOCC2)cc1	< 10000
CCN(CC)S(=O)(=O)c1ccc(Oc2ccc(NS(=O)(=O)c3ccc(Cl)cc3Cl)cc2C)cc1	< 10000
CCN(CC)S(=O)(=O)c1ccc(Oc2ccc(NS(=O)(=O)c3ccc(Cl)cc3Cl)cc2Cl)cc1	< 1000
CS(=O)(=O)c1ccc(Sc2c(Cl)cc(NS(=O)(=O)c3ccc(C(F)(F)F)cc3Cl)cc2Cl)cc1	< 1000
Cc1cc(S(=O)(=O)Nc2ccc(Oc3ccc(S(=O)(=O)N4CCOCC4)cc3)c(Cl)c2)c(Cl)cc1Cl	< 10000
CCN(CC)S(=O)(=O)c1ccc(Oc2ccc(NS(=O)(=O)c3ccc(Cl)cc3)cc2C)cc1	< 30000
CCc1cc(S(=O)(=O)N(CC)CC)ccc1Oc1c(Cl)cc(NS(=O)(=O)c2ccc(C(F)(F)F)cc2Cl)cc1Cl	< 1000
CC(=O)c1cc(NS(=O)(=O)c2ccc(F)c(C(F)(F)F)c2)cc(Cl)c1Oc1ccc(S(=O)(=O)N2CCOCC2)cc1	< 1000
Cc1cc(S(=O)(=O)Nc2cc(Cl)c(Oc3ccc(S(=O)(=O)N4CCOCC4)cc3)c(C(=O)OC(C)C)c2)c(Cl)cc1Cl	< 1000
COc1ccc(S(=O)(=O)Nc2cc(Cl)c(Oc3ccc(S(=O)(=O)N4CCOCC4)cc3)c(C(C)=O)c2)cc1F	< 1000
CCCCc1nc(NS(=O)(=O)c2ccc(Cl)cc2Cl)ncc1Sc1ccc([N+](=O)[O-])cc1	< 10000
CC(=O)c1cc(NS(=O)(=O)c2c(C)cc(Cl)cc2Cl)cc(Cl)c1Oc1ccc(S(=O)(=O)N2CCOCC2)cc1	< 1000

Other lines, results leading:

IC50 [nM]	SMILES
< 1000	Cc1cc(Oc2c(Cl)cc(NS(=O)(=O)c3ccc(C(F)(F)F)cc3Cl)cc2Cl)ccc1S(=O)(=O)N1CCC(C)CC1
< 1000	CC(C)N(C)C(=O)c1cc(NS(=O)(=O)c2ccc(C(F)(F)F)cc2Cl)ccc1Oc1ccc(S(=O)(=O)N2CCCCC2)cc1
< 1000	CC(=O)c1cc(NS(=O)(=O)c2cc(C)c(Cl)cc2Cl)ccc1Oc1ccc(S(=O)(=O)N2CCCC2)c(C)c1
< 1000	CC(C)CC(=O)c1cc(NS(=O)(=O)c2ccc(C(F)(F)F)cc2Cl)ccc1Oc1ccc(S(=O)(=O)N2CCCCC2)cc1
< 1000	CCCC(=O)c1cc(NS(=O)(=O)c2ccc(Cl)cc2Cl)ccc1Oc1ccc(S(=O)(=O)N2CCCCC2)cc1
< 1000	CC(C)NC(=O)c1cc(NS(=O)(=O)c2ccc(C(F)(F)F)cc2Cl)ccc1Oc1ccc(S(=O)(=O)N2CCCCC2)cc1
< 1000	CC(=O)c1cc(NS(=O)(=O)c2cc(C)c(Cl)cc2Cl)cc(Cl)c1Oc1ccc(S(=O)(=O)N2CCCCC2)c(Cl)c1
< 1000	Cc1cc(Oc2ccc(NS(=O)(=O)c3ccc(C(F)(F)F)cc3Cl)cc2C(=O)NC(C)C)ccc1S(=O)(=O)N1CCCC1
< 1000	CC(F)(F)c1cc(NS(=O)(=O)c2ccc(C(F)(F)F)cc2Cl)cc(Cl)c1Oc1ccc(S(=O)(=O)N2CCCCC2)cc1
< 1000	Cc1cc(S(=O)(=O)Nc2ccc(Oc3ccc(S(=O)(=O)N4CCCC4)c(C)c3)c(C(=O)N(C)C(C)C)c2)c(Cl)cc1Cl
< 1000	O=S(=O)(Nc1cc(Cl)c([S+]([O-])c2ccc(S(=O)(=O)N3CCCC3)cc2)c(Cl)c1)c1ccc(C(F)(F)F)cc1Cl (centres unmarked)
< 1000	CCC(C)NC(=O)c1cc(NS(=O)(=O)c2ccc(C(F)(F)F)cc2Cl)ccc1Oc1ccc(S(=O)(=O)N2CCCCC2)c(C)c1 (centres unmarked)
< 1000	O=S(=O)(Nc1cc(Cl)c(Oc2ccc(S(=O)(=O)N3CCCCCC3)cc2)c(Cl)c1)c1ccc(C(F)(F)F)cc1Cl
< 1000	CC(=O)c1cc(NS(=O)(=O)c2ccc(C(F)(F)F)cc2Cl)ccc1Oc1ccc(S(=O)(=O)N2CCCCC2)c(C)c1
< 1000	CCOC(=O)c1cc(NS(=O)(=O)c2ccc(C(F)(F)F)cc2Cl)ccc1Oc1ccc(S(=O)(=O)N2CCCCC2)c(C)c1
< 1000	CCC(C)NC(=O)c1cc(NS(=O)(=O)c2cc(C)c(Cl)cc2Cl)ccc1Oc1ccc(S(=O)(=O)N2CCCCC2)c(C)c1 (centres unmarked)

IC50 [nM]	SMILES
< 10000	O=S(=O)(Nc1ccc(Oc2ccc(S(=O)(=O)N3CCCCC3)cc2)c(Cl)c1)c1ccc(Cl)cc1Cl
< 1000	CCOC(=O)c1cc(NS(=O)(=O)c2ccc(C(F)(F)F)cc2Cl)ccc1Oc1ccc(S(=O)(=O)N(CC)CC)c(C)c1
< 1000	CCNC(=O)c1cc(NS(=O)(=O)c2cc(C)c(Cl)cc2Cl)ccc1Oc1ccc(S(=O)(=O)N2CCCCC2)cc1
< 1000	O=S(=O)(Nc1cc(Cl)c(Sc2ccc(S(=O)(=O)N3CCCC3)cc2)c(Cl)c1)c1ccc(C(F)(F)F)cc1Cl
< 1000	O=S(=O)(Nc1ccc(Oc2ccc(S(=O)(=O)N3CCCCC3)cc2)c(CN2CCOCC2)c1)c1ccc(Cl)cc1Cl
< 1000	CCNC(=O)c1cc(NS(=O)(=O)c2ccc(Cl)c(C)c2Cl)ccc1Oc1ccc(S(=O)(=O)N2CCCC2)c(C)c1
< 1000	CCOC(=O)c1cc(NS(=O)(=O)c2ccc(Cl)cc2Cl)ccc1Oc1ccc(S(=O)(=O)N2CCCCC2)c(C)c1
< 1000	O=C(c1cc(NS(=O)(=O)c2ccc(Cl)cc2Cl)ccc1Oc1ccc(S(=O)(=O)N2CCOCC2)cc1)C1CC1
< 1000	CCC(C)NC(=O)c1cc(NS(=O)(=O)c2ccc(Cl)cc2Cl)ccc1Oc1ccc(S(=O)(=O)N2CCCCC2)c(C)c1 (centres unmarked)
< 1000	CS(=O)(=O)c1ccc(S(=O)(=O)c2ccc(NS(=O)(=O)c3ccc(C(F)(F)F)cc3Cl)cc2Cl)cc1
< 1000	CC(=O)c1cc(NS(=O)(=O)c2ccc(C(F)(F)F)cc2Cl)cc(Cl)c1Oc1ccc(S(=O)(=O)N2CCCCC2)c(C)c1
< 1000	CCCN(CC)S(=O)(=O)c1ccc(Oc2c(Cl)cc(NS(=O)(=O)c3ccc(C(F)(F)F)cc3Cl)cc2Cl)cc1
< 1000	O=S(=O)(Nc1cc(Cl)c(Oc2ccc(S(=O)(=O)N3CCCCC3)cc2)c(Cl)c1)c1ccc(Cl)cc1Cl
< 1000	CC(F)(F)c1cc(NS(=O)(=O)c2ccc(C(F)(F)F)cc2Cl)cc(Cl)c1Oc1ccc(S(=O)(=O)N2CCOCC2)cc1
< 1000	O=C(c1cc(NS(=O)(=O)c2ccc(C(F)(F)F)cc2Cl)ccc1Oc1ccc(S(=O)(=O)N2CCCCC2)cc1)N1CCCC1
< 1000	CC(=O)c1cc(NS(=O)(=O)c2cc(C(F)(F)F)ccc2Cl)cc(Cl)c1Oc1ccc(S(=O)(=O)N2CCOCC2)cc1
